Measurements published in article PMC7046293, “Parallel quorum-sensing system in Vibrio cholerae prevents signal interference inside the host” (PLoS Pathogens, 2020).

Biological target: CqsR-LBD (Vibrio cholerae, UniProt Q9KR16)
Experiment: biochemical
Parameters: gene VC_1831

SMILES: NCCO [ethanolamine]
- Kd: 478 ± 76 nM
